Earlier results in article PMC3594649 (Molecular pharmaceutics, 2013).

Conditions: rifampicin treatment, humans; cited from earlier work

CO[C@H]1/C=C/O[C@@]2(C)Oc3c(C)c(O)c4c(O)c(c(/C=N/N5CCN(C)CC5)c(O)c4c3C2=O)NC(=O)/C(C)=C\C=C\[C@H](C)[C@H](O)[C@@H](C)[C@@H](O)[C@@H](C)[C@H](OC(C)=O)[C@@H]1C [rifampicin]
decrease of midazolam AUC: 70%
